The chains behind the UniProt entries cited, without tags or fusion partners. Residues count along the entry.
UniProt P00747, 20-810: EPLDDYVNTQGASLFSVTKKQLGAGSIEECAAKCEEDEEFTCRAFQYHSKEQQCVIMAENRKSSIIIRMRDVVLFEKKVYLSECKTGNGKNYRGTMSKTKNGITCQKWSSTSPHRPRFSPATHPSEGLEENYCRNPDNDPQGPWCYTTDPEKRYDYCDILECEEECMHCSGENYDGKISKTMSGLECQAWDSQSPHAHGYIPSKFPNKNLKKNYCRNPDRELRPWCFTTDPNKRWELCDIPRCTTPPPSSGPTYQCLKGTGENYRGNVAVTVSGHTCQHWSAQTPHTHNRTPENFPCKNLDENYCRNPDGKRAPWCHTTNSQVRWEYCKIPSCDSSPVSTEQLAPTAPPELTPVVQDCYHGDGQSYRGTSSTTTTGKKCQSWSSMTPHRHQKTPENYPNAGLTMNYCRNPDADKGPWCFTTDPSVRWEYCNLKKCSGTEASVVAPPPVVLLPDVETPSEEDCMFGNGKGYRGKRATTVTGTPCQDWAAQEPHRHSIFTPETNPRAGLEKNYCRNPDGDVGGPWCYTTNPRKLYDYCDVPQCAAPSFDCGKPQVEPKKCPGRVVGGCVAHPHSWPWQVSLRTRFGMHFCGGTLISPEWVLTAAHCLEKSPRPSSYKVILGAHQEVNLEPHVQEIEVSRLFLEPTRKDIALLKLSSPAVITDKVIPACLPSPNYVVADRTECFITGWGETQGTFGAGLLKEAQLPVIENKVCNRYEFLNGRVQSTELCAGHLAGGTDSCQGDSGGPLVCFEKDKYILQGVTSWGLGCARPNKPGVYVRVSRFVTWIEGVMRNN

In PMC2972214:

Target: human plasminogen (human) (UniProt P00747)
Experiment: SPR
Conditions: natural protein

recombinant α-enolase of Streptococcus oralis SV18 (IPM …) (from UniProt A0A1X1IR15 1-434)
Kd: 200 nM
